Data set [1] relates to adult female cynomolgus monkeys. The class given is in vivo, Macaca fascicularis. The protocol:
Eleven adult female cynomolgus monkeys (Macaca fascicularis) were selected for study based on records indicating regular menstrual cycles. The average body weight for these primates was 4.79±0.86 kg.
Counting the first day of spontaneous menses as cycle day 1, the monkeys were treated with 25 IU (im) of FSH twice daily according to three regimens. Group 1 received injections on cycle days 1-11; Group 2 on cycle days 1-4 and Group 3 on days 8-11. For all monkeys, laparoscopies were performed under ketamine anesthesia, beginning on the first day of FSH treatment and serially every 3 to 5 days thereafter to assess the status of ovarian follicular development. In order to test whether these FSH driven follicles could be ovulated, monkeys in Group 1 only received 1,000 IU (im) of hCG on day 12 and retrograde lavage of the fallopian tubes for egg collection 72 hours after hCG treatment was employed to determine whether ovulation had acutally occurred. Daily femoral blood samples were collected beginning on day 1 of the cycle and continued for 40 days or until menstruation. Sera were frozen until radioimmunoassay of LH, FSH, 17β--estradiol and progesterone.

Data set [2] deals with normal cynomolgus monkeys. The experiment in a line: GnRH antagonist plus fixed gonadotropin regimen (FSH/LH or FSH only) followed by hCG. The class given is in vivo. The protocol: The GnRH antagonist (Ac-pClPhe^1,pClPhe^2, DTrp^3, DArg^6, DAla^10)GnRH HCl, was administered to 20 normal cynomolgus monkeys (1.0 mg/kg/day) in order to eliminate endogeneous pituitary FSH and LH secretion. Superimposed on this treatment, 15 of the monkeys were administered a human menopausal gonadotropin preparation containing approximately equal amounts of FSH and LH and five monkeys were administered FSH only to stimulate ovarian follicular maturation. Control groups received either the combined exogeneous gonadotropins or FSH only (15 monkeys each group). All of the groups received a fixed regimen of gonadotropin therapy for seven consecutive days (25 IU/day/im, cycle days 3-9) followed by hCG (1,000 IU/im) on cycle day 10.

Setting [3] is: Group 1, mid-luteal phase, after hCG.
Where [4] appears, read: Group 3: FSH on cycle days 8-11.

Here are results for 1 substance from US4845077A, “Method of inducing ovulation” (Serono Laboratories, Inc., priority 1987, dated 1989).

Some results are limits rather than exact numbers.

Turning to follicle stimulating hormone [FSH], the serum estradiol entry in data set [1] (Group 1: 25 IU im twice daily, cycle days 1-11, sustained elevation) was “about 500 pg/ml”. Besides, in data set [1] (Group 1, by cycle day 8-11), the “prominent follicles (multiple follicular growth)” value is 10-15. In data set [1] (setting [3]), the mean serum estradiol is > 400 pg/mL and the mean serum progesterone entry is reported as “exceed 15 ng/ml”. Moreover, the “serum LH and progesterone” value in data set [1] (Group 1, prior to hCG treatment) is recorded as “remained at basal levels”. In data set [1] (Group 1, retrograde lavage 72 hours after hCG), the “egg recovery from the fallopian tubes (ovulation)” value is listed as “recovery of one or more eggs from the fallopian tubes of each female”. In data set [1] (Group 1, within 48 hours after hCG 1,000 IU im on day 12), the “ovulatory stigma observed on each ovary” value is listed as 1-3. In addition, the LH surges entry in data set [1] (Group 2: FSH on cycle days 1-4) is “no LH surges were observed”. Further, the ovulatory stigma entry in data set [1] (Group 2, after withdrawal of FSH, no hCG) is listed as “No ovulatory stigma appeared”. The “laparoscopy appearance of the ovaries” value in data set [1] (Group 2, cycle day 5) is on record as “both ovaries were enlarged with multiple vasicular follicles”. Besides, the “mean peak serum estradiol” value in data set [1] (Group 2, cycle days 4-6) is on record as “exceeding 300 pg/ml”. The “onset of the luteal phase in the subsequent spontaneous ovulatory cycle” value in data set [1] (Group 2, serum progesterone basal until then) was found to be 24 ± 2.4 days. Besides, in data set [1] (setting [4]), the “mean serum estradiol concentrations” value is listed as “increased abruptly” and the “monkeys with a spontaneous LH surge” value is reported as “one of four”. The “circulating FSH levels after discontinuation” value in data set [1] (cynomolgus monkey, in vivo) is given as “below the limits of detection”. The “maturation of ovarian follicles” value in data set [2] (FSH 25 IU/day im cycle days 3-9 with GnRH antagonist 1.0 mg/kg/day, in the absence of LH) is recorded as “promoted maturation of multiple ovarian follicles”. Besides, the “ovulation of the follicles by hCG” value in data set [2] (FSH with GnRH antagonist, hCG 1,000 IU im on cycle day 10) is listed as “ovulated by hCG with subsequent recovery of two-cell embryos”. In addition, in data set [2] (control group, FSH only 25 IU/day im cycle days 3-9, hCG on day 10, no GnRH antagonist), the “monkeys in which ovulation was achieved” value is on record as 9 of the 15.
